Experimental data as given in US6387406B1, “Copolymer compositions for oral delivery” (Supratek Pharma Inc., priority 1992, dated 2002).

Conditions: mouse, in vivo, iv

Substance: Pluronic P85
- Polymer content Spleen: 0.47 % of initial dose per organ
